1 molecule from patent US20100003217A1, “Compounds and Pharmaceutical Compositions for the Treatment of Viral Infections” (priority 2008, published 2010) can be followed below.

The subject of this experiment is wild-type HCV replicon (GS4.1 cells). To be noted: wild-type GS4.1 replicon cells. As for the experimental part:
1. […] Huh-7 cells were seeded into column 1 of each plate at a similar density.
2. […] Eight additional 3-fold serial dilutions of each compound were prepared from the 2× stock in assay medium. Final drug concentrations ranged from 100 to 0.015 μM.
3. […] This setup was run in duplicate in each 96-well plate.
4. Cells were incubated with inhibitors for three days at 37° C./5% CO2.
1. After three days of drug treatment, media was removed from the plates via gentle tapping and the cells were fixed to the plates with 100 μL/well of 1:1 acetone:methanol.
2. After one minute of incubation at room temperature, plates were washed three times with 100 μL/well of ELISA wash solution and then blocked with 150 μL/well of 10% FBS-TNE.
3. After a one hour incubation at room temperature, plates were washed three times with 100 μL/well of ELISA wash solution, and then 100 μL/well of mouse anti-hepatitis C […] mAb (1 mg/mL stock diluted 1:1,500 in 10% FBS-TNE) was added.
4. Following 2 hours of incubation at 37° C., plates were washed three times with 100 μL/well of ELISA wash solution, and then 100 μL/well of HRP-goat anti-mouse antibody (diluted 1:4,000 in 10% FBS-TNE) was added.
4. […]
6. The absorbance was measured at 490 nm on a Victor^3 V 1420 multilabel counter (Perkin Elmer). The percent inhibition of HCV replicon replication was calculated for each drug using an average of the duplicate wells.

Structures are written as SMILES.

With `NC(=O)c1ncn([C@@H]2O[C@H](CO)[C@@H](O)[C@H]2O)n1` [RBV, ribavirin, reference compound], the “fold less active than Compound 1” value was “approximately 126 fold”.
